Values of other authors in patent publication US20050090520A1, “Treatment of disease or injury of the nervous system with FTY720” (priority 2003, published 2005).

Chains of the proteins cited; added tags and fusions are not shown.
UniProt P21453, whole entry, species assumed: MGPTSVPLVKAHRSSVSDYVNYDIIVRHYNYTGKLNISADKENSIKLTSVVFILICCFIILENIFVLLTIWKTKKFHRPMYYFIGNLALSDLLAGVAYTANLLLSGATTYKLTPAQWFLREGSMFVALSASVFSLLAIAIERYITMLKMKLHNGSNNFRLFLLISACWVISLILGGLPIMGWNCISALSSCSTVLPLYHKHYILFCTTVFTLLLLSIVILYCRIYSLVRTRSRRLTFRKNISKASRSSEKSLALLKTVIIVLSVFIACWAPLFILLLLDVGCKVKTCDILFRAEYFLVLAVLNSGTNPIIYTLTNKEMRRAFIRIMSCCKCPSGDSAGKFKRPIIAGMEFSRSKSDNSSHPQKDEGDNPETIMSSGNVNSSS

Biological target: S1P1 (Homo sapiens, UniProt P21453)
Conditions: Mandala et al., 2002; CHO cell membranes; read-out: Binding (IC50) S1P1; cited from earlier work

CCCCCCCCc1ccc(CCC(N)(CO)CO)cc1 [FTY720, 2-amino-2-[2-(4-octylphenyl)ethyl]-1,3-propanediol]
IC50: 0.3 µM
